Assay results as given in patent publication US20060264508A1, “Modulation of ocular growth and myopia by gaba drugs” (priority 2001, published 2006).

System: goggled eyes (form-deprivation myopia)
Conditions: at the doses used; in vivo ocular examinations or inspection of bisected enucleated eyes

Br.COc1ccc(-c2ccc(=N)n(CCCC(=O)O)n2)cc1 [SR95531, 6-imino-3-(4-methoxy-phenyl)-1(6H)-pyridazinebutanoic acid hydrobromide]
ocular toxicity: did not cause any ocular toxicity
